Data reported in ChEMBL document CHEMBL2074487, “Effects of 12 Ca2+ antagonists on multidrug resistance, MDR1-mediated transport and MDR1 mRNA expression” (Eur J Pharm Sci, 2002).

Target: ATP-dependent translocase ABCB1 (Homo sapiens, UniProt P08183)
Experiment: TP_TRANSPORTER: inhibition of Digoxin transepithelial transport (basal to apical) (Digoxin: 0.1 uM) in MDR1-expressing LLC-PK1 cells
Type: functional, cell-based

Compound: COC(=O)C1=C(C)NC(C)=C(C(=O)OCCN(C)Cc2ccccc2)C1c1cccc([N+](=O)[O-])c1 (stereo unspecified) [NICARDIPINE]
- IC50: 4.54 µM
